{
  "sequences": {"note": "Sequences of proteins named here, by UniProt entry; tags and fusion partners are left off.", "UniProt P23219, whole entry": "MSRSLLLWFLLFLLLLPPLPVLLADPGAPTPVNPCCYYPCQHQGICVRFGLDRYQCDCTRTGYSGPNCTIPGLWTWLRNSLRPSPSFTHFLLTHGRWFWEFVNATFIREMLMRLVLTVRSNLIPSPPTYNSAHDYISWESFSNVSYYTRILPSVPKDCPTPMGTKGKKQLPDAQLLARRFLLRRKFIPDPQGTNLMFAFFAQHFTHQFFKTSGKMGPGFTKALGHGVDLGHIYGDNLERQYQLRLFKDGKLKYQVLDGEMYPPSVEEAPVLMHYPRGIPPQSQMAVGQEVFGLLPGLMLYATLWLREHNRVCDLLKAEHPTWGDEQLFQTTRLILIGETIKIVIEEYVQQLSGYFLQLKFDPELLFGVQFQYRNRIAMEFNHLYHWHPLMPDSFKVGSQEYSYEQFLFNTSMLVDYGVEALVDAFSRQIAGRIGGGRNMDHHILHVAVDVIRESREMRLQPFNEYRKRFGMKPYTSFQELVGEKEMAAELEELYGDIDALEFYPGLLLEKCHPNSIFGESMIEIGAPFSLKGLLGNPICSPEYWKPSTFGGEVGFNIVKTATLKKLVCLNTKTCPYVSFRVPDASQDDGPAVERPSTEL"},
  "source": "BindingDB's records for doi:10.1016/s0002-9343(98)00091-6",
  "about": "(Dallas Department of Veterans Affairs Medical Center, 1998)",
  "target": "Prostaglandin G/H synthase 1 (Homo sapiens, UniProt P23219)",
  "data": [
    {"smiles": "O=C(O)CCc1nc(-c2ccccc2)c(-c2ccccc2)o1", "note": "[3-(4,5-Diphenyl-oxazol-2-yl)-propionic acid]", "values": [
      {"measurement": "IC50", "value": "> 10", "unit": "µM"}
    ]}
  ]
}
